These are literature values, as cited in article PMC10559049 (Heliyon, 2023).

The series concerns sEH. The settings on record: cited from earlier work.

With `O=C(O)CCCCCCCCCCCNC(=O)NC12CC3CC(CC(C3)C1)C2` [AUDA, 12-(3-adamantane-1-yl-ureido)-dodecanoic acid], the sEH inhibitory effects result is recorded as “inhibitory effects at nanomolar concentrations”.
